From US20240285787A1, “PEPTIDES COMPRISING N-FORMYL-HALOGENATED METHIONINE RESIDUES AND ENGINEERED ANTIBODY-PEPTIDE CONJUGATES THEREOF” (Eli Lilly and Company, priority 2021, published 2024)

Assay: PK Parameters Using 2-Compartment Model
Description: Table printed on a drawing sheet, Fig. 10D
Title: PK Parameters Using 2-Compartment Model
The patent's description of the figure: FIG. 10A. Pharmacokinetics for trastuzumab.
FIG. 10B. Pharmacokinetics for trastuzumab conjugated to peptide FRM047.
FIG. 10C. Tabular data for results in FIG. 9A and FIG. 9B.
FIG. 10D. PK Parameters Using 2-Compartment Model for results in FIG. 9A and FIG. 9B.
First reader's note: Each column is one substance (trastuzumab parent antibody and its FRM047 peptide conjugate); the second left column holds the units.

## Tmab
  AUC0-inf |: 25800 µg·h/mL
  AUC0-t |: 12500 µg·h/mL
  CL2 (Q) |: 0.00021 L/h
  CL (CL) |: 2.78e-06 L/h
  V2 (V2) |: 0.074 L/kg
  Vc (V1) |: 0.056 L/kg
  t1/2 | hr: 27.1 days
